Results from patent US20250213516A1, “Prophylactic Methods For Treating ALS” (BioJiva LLC, priority 2022, published 2025).

Assay: Concentration of 13,13-D2-arachidonic acid in red blood cells of treated ALS patients
Conditions: daily dosage of about 8.64 grams over about 4 to about 10 weeks

[2H]C([2H])(/C=C\CCCCC)/C=C\CCCCCCCC(=O)O [11,11-D2-linoleic acid]
steady state concentration of 13,13-D2-arachidonic acid in red blood cells: about 20%
